Assay: Equianalgesic potency conversion (Duragesic prescribing information)

For Ocycodone, the “potency relative to oral morphine” value was “twice as potent as oral morphine”.
